# Experimental data from US20260174823A1, “CGRP/RAMP1 BLOCKADE TO TREAT ENDOMETRIOSIS-ASSOCIATED PAIN AND REDUCE ENDOMETRIOSIS LESIONS” (The Children's Medical Center Corporation, priority 2022, published 2026).
# “Also recorded” adds a separate entry of the source.
# Key:
# endometriosis lesions = conditions: high-doses of CGRP, previously shown; cited from earlier work
# peritoneal macrophages = experiment: efferocytosis assay: peritoneal macrophages with apoptotic 12z-eGFP cells; type: cell-based, mouse; conditions: CGRP 100 nM for 24 hours vs vehicle-treated group
# Protocol: (§1) Peritoneal cells were collected in FACS buffer from the abdominal cavity of naïve mice. Peritoneal cavity immune cells were seeded in petri dishes in RPMI media and incubated at 37° C. in 5% CO2 for 60 minutes. Non-adherent cells were discarded, and adherent cells (macrophages) were scraped, centrifuged, and counted.
# For the efferocytosis assay, macrophages (200,000 cells per well) were plated overnight onto a 96-well plate. Stimulus with CGRP (100 nM) or vehicle was performed for 24 hours. After that, etoposide-induced apoptotic 12z-eGFP were added (600,000 cells per well) to the macrophage culture and incubated for 1 hour. Cells were washed 3 times with DPBS to remove non-engulfed 12z-eGFP and then and fluorescence intensity determined. […]
# (§2) Macrophages represent the majority of cells in the peritoneal cavity and these cells are directly implicated in the etiology of endometriosis. […] Cell growth was assessed using the CyQuant™ kit and quantification performed in a spectrophotometer (n=8 well per group). […]
# PerC wash and lesions were collected 56 dpi from sham or endometriosis mice for determination of pCREB activation or RAMP1 expression by immunofluorescence (FIG. 9A). […] Lesion size was determined in the remaining lesions by measuring height and weight. […] Cells were washed 3 times with DPBS to remove non-engulfed 12z-eGFP and then and fluorescence intensity determined. […]
# [1] = test system: mouse endometrial epithelial cells (mEECs); experiment: mEEC proliferation assay in transwell co-culture with peritoneal macrophages (CyQuant); type: cell-based; conditions: CGRP 100 nM for 24 hours vs vehicle
# Protocol: as §1
# For experiments involving mouse epithelial endometrial cell (mEEC) proliferation, macrophages were plated (100,000 cells per well) onto tissue culture insert and left overnight with 20,000 mEEC plated on the bottom of the well. […]
# as §2
# PerC wash and lesions were collected 56 dpi from sham or endometriosis mice for determination of pCREB activation or RAMP1 expression by immunofluorescence (FIG. 9A). […] Lesion size was determined in the remaining lesions by measuring height and weight. […] Cells were washed 3 times with DPBS to remove non-engulfed 12z-eGFP and then and fluorescence intensity determined. […] Results shown are expressed as mean±SEM, n=5−12 (one-way ANOVA followed by Tukey's post hoc or Student's t-test, ****P<0.0001, p<0.001, **p<0.02, *p<0.05).
substance,measurement,setting,value
"calcitonin gene-related peptide (ACDTATCVTHRLAGLLSRSGGVVKNNFVPTNVGSKAF; Calcitonin gene-related peptide 1; UniProt P06881 83-119, looked up) [CGRP, neuropeptide released by peptidergic nociceptors, signals through RAMP1; used as stimulus (100 nM)]",growth of endometriosis lesions,endometriosis lesions,increase the growth
same,efferocytosis activity of macrophages (fluorescence intensity),peritoneal macrophages,reduced efferocytosis activity; also recorded: reduces efferocytosis
same,growth of mEEC in co-culture with CGRP stimulated macrophages,[1],promote the growth
